# Assay results as given in article PMC10674987, “Sweet Cherry Extract as Permeation Enhancer of Tyrosine Kinase Inhibitors: A Promising Prospective for Future Oral Anticancer Therapies” (Pharmaceuticals, 2023).
# Test system: Caco-2 monolayer
# Assay: Caco-2 monolayer permeability to albumin
# Assay type: in vitro ADME, human
# Conditions: 1 mg/mL HSA in HBSS, 2 h, A-B
# Protocol: Caco-2 cells were seeded at a density of 2 × 10^4 on Transwell supports (0.4 µm pore polycarbonate membrane, 6.5 mm) and incubated overnight in a controlled atmosphere of 37 °C and 5% of CO2. The following day, the medium was changed to remove floating cells and fresh pre-warmed DMEM 20% was added (300 µL in the apical compartment and 1200 µL in the basal one). Cells were cultured for approximately 18–21 days in order to ensure that the cellular monolayers differentiated and many transport proteins and brush border hydrolases were expressed. Media were changed every 2–3 days.
# Due to its large molecular size, human serum albumin (HSA) was used as a probe to conduct experiments focusing on the dimensions of drug cargoes. […] Finally, the amount of HSA that passed across the Caco-2 monolayer was quantified using the QuantiPro™ BCA Assay Kit (Sigma Aldrich S.r.l., Milan, Italy) with few modifications of the manufacturer’s protocol. Because of the possible complexing phaenomena between the cherry extract and HSA, primarily via hydrogen bonds and van der Waals forces, the quantification of HSA in the absence and presence of SCE was performed using specific calibration curves. […] Absorbance was quantified at 562 nm using a Multiskan SkyHigh Microplate Spectrophotometer (ThermoFisher, Waltham, MA, USA) after incubation for 2 h at 37 °C.
substance,measurement,setting,value
"HSA: human serum albumin (66.4 kDa), macromolecular tracer",HSA detected in the basolateral compartment,+SCE [1 mg/mL],104.887 ± 2.440 µg/mL
same,HSA detected in the basolateral compartment,Free,108.760 ± 0.978 µg/mL
